# In patent US20100269215A1, “Tfla gene which can degrade toxoflavin and its chemical derivatives and transgenic organisms expressing tfla gene” (SNU R&DB Foundation, priority 2006, published 2010):
# Tests used:
# [1] = tested on: Arabidopsis Col-0, transgenic plants with toxoflavin-resistant gene tflA; conditions: 20 uM toxoflavin
# [2] = biological target: Paenibacillus polymyxa JH2 TflA protein, wild type, N-terminal His-tagged (His-TflA), SEQ ID NO: 2 (Paenibacillus polymyxa, UniProt E3SET7); conditions: toxoflavin 80-200 μM; 50 mM sodium phosphate pH 6.5; MnCl2 and DTT; Lineweaver-Burk plot
compound,measurement,setting,value
Cn1ncnc2c(=O)n(C)c(=O)nc1-2 [toxoflavin],growth,[1],normal growth
same,Vmax,[2],−0.45 U/mg
